# Tests used:
# Type in all cases: in vivo, SCID mice
# H460-derived xenografts = test: Ligand-targeted therapy of lung cancer xenografts; conditions: doxorubicin 1 mg/kg i.v. twice a week, eight injections (total 8 mg/kg); n = 6
# CL1-5-derived xenografts = test: Ligand-targeted therapy of lung cancer xenografts; conditions: doxorubicin 1 mg/kg i.v. twice a week, eight injections (total 8 mg/kg); tumors 50-100 mm^3 at start; n = 6
# Procedure: Mice 4–6 weeks of age were injected s.c. in the dorsolateral flank with human NSCLC cells. […] Mouse body weights and tumor sizes were measured twice a week. Tumor volumes were calculated using the equation: length×(width)^2×0.52. Animal care was carried out in accordance with guidelines of Academia Sinica, Taiwan.
# [1] = Pharmacokinetic and biodistribution study of doxorubicin formulations; conditions: 2 mg/kg i.v.; NSCLC xenografts ~500 mm^3; spectrofluorometry; n = 3 per time point
# Procedure: SCID mice bearing NSCLC xenografts (∼500 mm^3), were injected in the tail vein with various formulations of liposomal doxorubicin (SP5-2-LD, MP5-2-LD, and LD) and free doxorubicin at a dose of 2 mg/kg. At selected time points, three mice in each group were anaesthetized and sacrificed. Blood samples were collected through submaxillary punctures, and plasma samples were prepared. After perfusion, xenograft tumors and mouse organs were removed and homogenized. […] Total doxorubicin concentration was measured using a method described by Mayer et al.. […] Tissue concentrations of doxorubicin were expressed as microequivalents per milliliter of plasma or per gram of tissue. A standard doxorubicin curve was prepared in control homogenates following the same extraction procedure as above. Drug levels were estimated on the basis of doxorubicin fluorescent equivalents.
compound,measurement,setting,value
"COc1cccc2c1C(=O)c1c(O)c3c(c(O)c1C2=O)C[C@@](O)(C(=O)CO)C[C@@H]3O[C@H]1C[C@H](N)[C@H](O)[C@H](C)O1 [FD, doxorubicin]",Tumor size relative to that in the SP5-2-LD group,H460-derived xenografts,8.6 fold larger
same,Tumor size relative to that in the SP5-2-LD group,CL1-5-derived xenografts,7.0 times larger
same,AUC0–48 hours of doxorubicin in tumor tissues,[1],10.4 µg·h/g

# Reference: paper PMC2614347, “A Novel Peptide Enhances Therapeutic Efficacy of Liposomal Anti-Cancer Drugs in Mice Models of Human Lung Cancer” (PLoS ONE, 2009)
